Experimental data taken from ChEMBL document CHEMBL1137232 (J Med Chem, 2004).

Amino acid sequences for entries named in this document (tags omitted).
UniProt Q9WTR4, whole entry: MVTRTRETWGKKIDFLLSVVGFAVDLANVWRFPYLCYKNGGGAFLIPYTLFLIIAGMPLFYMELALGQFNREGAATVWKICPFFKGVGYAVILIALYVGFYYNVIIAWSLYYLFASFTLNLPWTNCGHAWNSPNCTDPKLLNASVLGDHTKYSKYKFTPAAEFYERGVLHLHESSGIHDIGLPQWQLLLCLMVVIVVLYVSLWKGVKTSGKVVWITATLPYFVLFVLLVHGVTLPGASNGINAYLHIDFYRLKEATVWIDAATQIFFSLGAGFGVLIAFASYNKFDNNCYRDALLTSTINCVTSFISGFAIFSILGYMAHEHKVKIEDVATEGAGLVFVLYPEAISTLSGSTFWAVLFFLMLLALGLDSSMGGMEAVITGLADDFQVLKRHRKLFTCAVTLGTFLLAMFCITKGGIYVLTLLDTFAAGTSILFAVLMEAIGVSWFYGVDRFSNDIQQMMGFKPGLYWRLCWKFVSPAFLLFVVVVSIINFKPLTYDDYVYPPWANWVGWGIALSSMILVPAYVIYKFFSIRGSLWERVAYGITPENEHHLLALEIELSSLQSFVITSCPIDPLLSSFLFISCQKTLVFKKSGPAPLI

Target: Norepinephrine transporter (Rattus norvegicus, UniProt Q9WTR4)
Test: Inhibition of high affinity uptake by the norepinephrine transporter from rat synaptosomal nerve endings by using [3H]NE as radioligand

Compound: CN1CCC(c2ccc(Cl)cc2)C(C[S+]([O-])CC(N)=O)C1 (stereo unspecified)
- Ki: 178 nM
